Apparent affinities of Ab-14 variants for a coronavirus HR2 peptide

Data: MIT Lincoln Laboratory AlphaSeq set, Li et al. 2023, doi:10.1038/s41467-023-39022-2, as distributed in FLAb.

Target peptide (SARS-CoV-2 spike, HR2 region): PDVDLGDISGINAS

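Phage display of a naive human antibody library on the peptide gave the parent. Designed CDR sequences, proposed from the first random library and measured here. Their group label is 14L_Ctrl (Ctrl: baseline library sampled from a position-specific scoring matrix, with some repeated check sequences). AlphaSeq pools MATa yeast showing the antibodies with MATalpha yeast showing the peptide. After mating in shaken culture at 30 °C for 16 h, diploids were selected and their barcode pairs sequenced. Scores were corrected for input abundance and mapped to Kd with protein pairs of known affinity run in the same pool. The assay was run in six technical replicates.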

Parent: Ab-14, a human scFv built as VH, a (GGGGS)3 linker, VL. Only the CDRs of the light chain vary.
VH: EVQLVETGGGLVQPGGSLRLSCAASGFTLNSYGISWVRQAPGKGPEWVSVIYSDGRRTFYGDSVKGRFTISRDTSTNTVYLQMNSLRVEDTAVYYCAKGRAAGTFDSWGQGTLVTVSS
VL: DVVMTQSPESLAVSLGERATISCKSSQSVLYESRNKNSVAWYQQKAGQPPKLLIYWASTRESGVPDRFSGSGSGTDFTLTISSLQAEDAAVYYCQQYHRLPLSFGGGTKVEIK

Positions count from residue 1 of the parent VL; Q27K puts K in place of Q. The read-out is the apparent dissociation constant on a log10 scale (nM): the lower, the stronger. "ND" means that the variant was in the library but no mating with the target was seen in that replicate; the authors take this as a sign of poor binding, and no number exists. The authors' rule: three or more of the six replicates give a measured affinity, fewer mean a poor binder. The parent sequence was in this pool as ten entries: three were never detected, three once, and four in most replicates, with averages from 0.34 to 2.37. Three control strains display no target. For all light chain designs, 4% of the pairings with them gave a signal, with a median of 2.64 and one signal in twenty below 1.59, so weak values seen in few replicates may be background. Also given: how often the same scFv was detected with the empty control strains, with their mean in brackets. A sequence measured in both rounds can read differently, since the two assays cover different ranges.

{"changes": "Q27K V39L S58Q", "replicates, log10 nM": "ND / 1.54 / 1.45 / 1.50 / 2.06 / 2.53", "empty controls": "1 of 18 (2.52)"}
{"changes": "S26K L30Q W56H S103D", "replicates, log10 nM": "ND / 1.28 / 2.18 / 1.20 / 1.63 / 1.26", "empty controls": "0 of 18"}
{"changes": "Y31Q N37K W56S L100M", "replicates, log10 nM": "0.33 / 1.10 / 0.62 / 0.95 / 0.91 / 0.66", "empty controls": "2 of 18 (2.05)"}
{"changes": "K24D V29C L102I", "replicates, log10 nM": "ND / ND / ND / ND / ND / ND", "empty controls": "0 of 18"}
{"changes": "S25T S28K W56Y", "replicates, log10 nM": "ND / 1.08 / 0.69 / 0.51 / 0.81 / 1.77", "empty controls": "0 of 18"}
{"changes": "L30T S38P W56S H98S L102C", "replicates, log10 nM": "2.10 / ND / ND / 2.94 / ND / ND", "empty controls": "1 of 18 (2.89)"}
{"changes": "S25L Q27M R34T Y97M H98F", "replicates, log10 nM": "ND / ND / ND / ND / ND / ND", "empty controls": "0 of 18"}
{"changes": "W56Q T59L H98S", "replicates, log10 nM": "0.37 / 0.10 / 0.10 / 0.00 / 0.26 / 0.22", "empty controls": "0 of 18"}
{"changes": "S26Q L30E Y31A E32C W56A", "replicates, log10 nM": "1.11 / 3.04 / 2.13 / ND / 3.04 / 2.66", "empty controls": "1 of 18 (3.31)"}
{"changes": "Q27E S62N", "replicates, log10 nM": "ND / ND / 2.17 / 2.05 / 1.60 / ND", "empty controls": "1 of 18 (1.90)"}
{"changes": "Y31R L102P", "replicates, log10 nM": "ND / ND / ND / ND / ND / ND", "empty controls": "1 of 18 (1.74)"}
{"changes": "S26Y R34M K36S W56N", "replicates, log10 nM": "0.49 / 0.36 / 0.62 / 0.77 / 0.63 / 0.24", "empty controls": "1 of 18 (2.40)"}
{"changes": "S25L Q27G W56T", "replicates, log10 nM": "-0.02 / -0.12 / -0.01 / -0.01 / -0.16 / -0.05", "empty controls": "1 of 18 (2.28)"}
{"changes": "S28W E32A R34H", "replicates, log10 nM": "ND / ND / ND / ND / ND / ND", "empty controls": "0 of 18"}
{"changes": "W56G H98W", "replicates, log10 nM": "0.25 / 0.28 / 0.82 / 0.54 / 0.73 / 1.22", "empty controls": "0 of 18"}
{"changes": "S25F S26K W56G S62Q Q96S", "replicates, log10 nM": "-0.23 / -0.13 / -0.32 / 1.32 / -0.54 / 0.18", "empty controls": "0 of 18"}
{"changes": "S25I N37G", "replicates, log10 nM": "1.40 / 1.82 / 1.05 / 2.23 / 1.38 / 1.13", "empty controls": "1 of 18 (2.07)"}
{"changes": "S26T S58D", "replicates, log10 nM": "ND / 1.90 / ND / 1.97 / ND / ND", "empty controls": "0 of 18"}

The last 3 entries again:

changes	replicates, log10 nM	empty controls
S25F S26K W56G S62Q Q96S	-0.23 / -0.13 / -0.32 / 1.32 / -0.54 / 0.18	0 of 18
S25I N37G	1.40 / 1.82 / 1.05 / 2.23 / 1.38 / 1.13	1 of 18 (2.07)
S26T S58D	ND / 1.90 / ND / 1.97 / ND / ND	0 of 18